Antibody variant affinities, Ab-95 light chain, assay 2

Target: peptide PDVDLGDISGINAS, taken from heptad repeat 2 (HR2) of SARS-CoV-2 spike.

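Phage display of a naive human antibody library on the peptide gave the parent. The library (AAYL52) carries one to three amino acid substitutions per variant, with no insertions or deletions. AlphaSeq pools MATa yeast showing the antibodies with MATalpha yeast showing the peptide. The frequency of each diploid, read from paired DNA barcodes, reflects how well the two displayed proteins bind. The ratio of observed to expected reads was calibrated, replicate by replicate, on BCL2-family standards whose Kd was known from biolayer interferometry. The assay was run in three technical replicates.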

Parent: Ab-95, a human scFv built as VH, three GGGGS repeats, VL. Only the CDRs of the light chain vary.
VH: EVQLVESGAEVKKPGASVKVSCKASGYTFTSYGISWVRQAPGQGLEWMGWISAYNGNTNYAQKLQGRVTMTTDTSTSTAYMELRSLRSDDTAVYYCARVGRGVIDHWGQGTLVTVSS
VL: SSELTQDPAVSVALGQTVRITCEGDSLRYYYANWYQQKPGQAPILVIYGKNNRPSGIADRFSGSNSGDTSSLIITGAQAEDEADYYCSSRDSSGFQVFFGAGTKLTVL

Positions count from residue 1 of the parent VL; N33L puts L in place of N.
This list gathers variants with a substitution at R53 (VL, numbered from residue 1).
Kd is apparent (estimated from mating counts) and averaged on the log scale over replicates with a signal. Smaller is tighter.
An entry "nd" has no value in the source: the pair was not observed among the diploids in any replicate. This suggests poor binding but is not conclusive.
Empty control strains, which show no peptide, gave a signal in 28% of pairings with library AAYL52; the median was 8.2 µM and 95% of these signals were weaker than 800 nM. No background was subtracted. The control count says in how many pairings with the empty strains this scFv gave a signal.
For reference, the parent read 200 nM as the reference entry and 180 nM as a member of this library.

For N33L+R53S+S93A, the assay gave nd (0 of 3 replicates; controls 0 of 9). For N33C+R53A+S55N, the assay gave 6.2 µM (1 of 3 replicates; controls 4 of 9). The variant Y31I+R53T+S55E gave 6.6 µM (3 of 3 replicates; controls 6 of 9). The variant A32H+K50S+R53W showed 18 µM (1 of 3 replicates; controls 1 of 9). The variant Y29M+R53F+P54N gave 300 µM (1 of 3 replicates; controls 2 of 9). The variant G49M+K50Q+R53Q showed 8.8 µM (1 of 3 replicates; controls 1 of 9).

The variant E23P+R53D+S93Q showed nd (0 of 3 replicates; controls 2 of 9). With N51G+R53D the result was 1.8 µM (3 of 3 replicates; controls 5 of 9). With N33Y+R53P+Q96D the result was nd (0 of 3 replicates; controls 1 of 9). The variant A32T+R53Q+G94D gave 7.8 µM (2 of 3 replicates; controls 4 of 9). The variant A32L+R53W+S92F showed 27 µM (2 of 3 replicates; controls 2 of 9). The variant E23L+D25Q+R53N showed 1.6 µM (1 of 3 replicates; controls 4 of 9).

The variant E23C+R28F+R53L gave 6.1 µM (3 of 3 replicates; controls 2 of 9). For Y31A+G49F+R53A, the assay gave 3.4 µM (1 of 3 replicates; controls 2 of 9). With R53Y the result was 2.9 µM (2 of 3 replicates; controls 5 of 9). For G24H+R53Q+D91Y, the assay gave 7.0 µM (1 of 3 replicates; controls 1 of 9). For Y30D+K50T+R53M, the assay gave nd (0 of 3 replicates; controls 2 of 9). The variant Y31R+K50W+R53Y gave 4.2 µM (2 of 3 replicates; controls 4 of 9).

For S26H+R28E+R53V, the assay gave 4.6 µM (2 of 3 replicates; controls 4 of 9). The variant R53V+V97H gave 86 µM (1 of 3 replicates; controls 0 of 9). With K50V+R53G+S93I the result was 19 µM (2 of 3 replicates; controls 3 of 9). The variant E23K+Y29G+R53K showed 7.2 nM (3 of 3 replicates; controls 5 of 9). With Y31L+R53I+F98P the result was 1.0 µM (1 of 3 replicates; controls 1 of 9). The variant L27K+N52K+R53L gave 2.8 µM (1 of 3 replicates; controls 1 of 9).

The variant Y29T+R53T+P54Y showed 4.2 µM (3 of 3 replicates; controls 2 of 9). The variant Y31L+R53Y+R90I showed 48 µM (1 of 3 replicates; controls 1 of 9). With Y30V+R53F+G94R the result was 8.3 µM (3 of 3 replicates; controls 6 of 9). The variant N51W+R53T+R90F showed 360 µM (1 of 3 replicates; controls 1 of 9). The variant G24I+D25R+R53A gave 11 µM (1 of 3 replicates; controls 5 of 9). With E23Y+Y30N+R53H the result was 940 pM (3 of 3 replicates; controls 4 of 9).

For Y29F+R53F+G94Y, the assay gave 170 µM (1 of 3 replicates; controls 5 of 9). The variant R53V+S92N+S93I gave nd (0 of 3 replicates; controls 3 of 9). With N33E+R53N+S93L the result was nd (0 of 3 replicates; controls 1 of 9). The variant Y29W+R53E+G94Y showed nd (0 of 3 replicates; controls 1 of 9). For Y29P+R53K+F98N, the assay gave 81 µM (1 of 3 replicates; controls 1 of 9). The variant Y29N+R53W+S88E showed 16 µM (2 of 3 replicates; controls 2 of 9).

For G49P+R53N+S89N, the assay gave 36 µM (1 of 3 replicates; controls 3 of 9). For Y30W+A32E+R53F, the assay gave 30 µM (2 of 3 replicates; controls 1 of 9). For N52E+R53G+S93M, the assay gave 2.6 µM (2 of 3 replicates; controls 3 of 9). For S26H+R53I+F98C, the assay gave 500 µM (1 of 3 replicates; controls 3 of 9). For L27M+Y31I+R53W, the assay gave 12 µM (1 of 3 replicates; controls 2 of 9). The variant G49T+R53V+S88G showed 2.9 µM (3 of 3 replicates; controls 1 of 9).

With A32S+K50Q+R53G the result was nd (0 of 3 replicates; controls 0 of 9). With G49K+R53T+V97L the result was 3.7 µM (2 of 3 replicates; controls 3 of 9). The variant R53H+S55K+V97S showed 6.9 µM (2 of 3 replicates; controls 3 of 9).

The opening 6 entries, copied out:

N33L+R53S+S93A: nd (0 of 3 replicates; controls 0 of 9).
N33C+R53A+S55N: 6.2 µM (1 of 3 replicates; controls 4 of 9).
Y31I+R53T+S55E: 6.6 µM (3 of 3 replicates; controls 6 of 9).
A32H+K50S+R53W: 18 µM (1 of 3 replicates; controls 1 of 9).
Y29M+R53F+P54N: 300 µM (1 of 3 replicates; controls 2 of 9).
G49M+K50Q+R53Q: 8.8 µM (1 of 3 replicates; controls 1 of 9).

Values reported by Engelhart et al. 2022, doi:10.1038/s41597-022-01779-4 (FLAb copy).